Assay results taken from patent publication US7947666B2, “2-methylene-(20S,25S)-19,26-dinor-vitamin D analogs” (Wisconsin Alumni Research Foundation, priority 2007, dated 2011).

Chains of the proteins cited; added tags and fusions are not shown. Lines headed by an entry give the natural chain unless they say otherwise; changes in a name come on top.
UniProt P13053: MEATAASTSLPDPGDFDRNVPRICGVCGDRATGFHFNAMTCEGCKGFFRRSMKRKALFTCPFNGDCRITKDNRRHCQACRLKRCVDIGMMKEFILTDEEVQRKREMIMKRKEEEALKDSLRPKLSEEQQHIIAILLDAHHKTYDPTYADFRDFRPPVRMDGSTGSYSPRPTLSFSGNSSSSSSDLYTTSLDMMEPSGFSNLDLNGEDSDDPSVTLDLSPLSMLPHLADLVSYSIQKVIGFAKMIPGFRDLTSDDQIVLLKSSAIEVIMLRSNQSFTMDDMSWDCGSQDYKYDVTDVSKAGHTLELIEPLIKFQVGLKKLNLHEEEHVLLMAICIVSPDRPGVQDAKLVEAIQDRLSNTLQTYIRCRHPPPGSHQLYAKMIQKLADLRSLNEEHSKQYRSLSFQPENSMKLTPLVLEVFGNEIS

Assays:
HL-60 cells = assay: HL-60 differentiation (nitro blue tetrazolium reduction); format: cell-based, human; settings: compared to 1,25(OH)2D3
Experimental: The study drugs were dissolved in ethanol and the concentrations determined using UV spectrophotometry. Serial dilutions were prepared so that a range of drug concentrations could be tested without changing the final concentration of ethanol (≦0.2%) present in the cell cultures.
Human promyelocytic leukemia (HL60) cells were grown in RPMI-1640 medium containing 10% fetal bovine serum. The cells were incubated at 37° C. in the presence of 5% CO2.
HL60 cells were plated at 1.2×10^5 cells/ml. Eighteen hours after plating, cells in duplicate were treated with drug. Four days later, the cells were harvested and a nitro blue tetrazolium reduction assay was performed (Collins et al., 1979; J. Exp. Med. 149:969-974). The percentage of differentiated cells was determined by counting a total of 200 cells and recording the number that contained intracellular black-blue formazan deposits. Verification of differentiation to monocytic cells was determined by measuring phagocytic activity (data not shown).

[1] = target: full-length recombinant rat vitamin D receptor (Rattus norvegicus, UniProt P13053); settings: FIG. 1

- affinity to the nuclear vitamin D receptor compared to 1,25-(OH)2D3 [1]: nearly the same affinity
SMILES: C=C1[C@H](O)CC(=C/C=C2\CCC[C@@]3(C)C2CC[C@@H]3[C@@H](C)CCC[C@H](C)O)C[C@H]1O (stereo partly drawn) [A4, 2-methylene-(20S,25S)-19,26-dinor-1α,25-dihydroxyvitamin D3]
- potency on HL-60 cell differentiation relative to 1,25(OH)2D3 (times more potent) (HL-60 cells): about 10 times
